The source of these data is US9822115B2, “Nitrogen containing compounds and their use as antibacterial agents” (WOCKHARDT LIMITED, priority 2014, dated 2017).

The experiment relates to K. pneumoniae H521 (KPC, SHV, TEM). The experiment is described as follows: Antibacterial activity, MIC by agar dilution (CLSI). Type of experiment: cell-based. Conditions: Table 2. Here is the method: The biological activity of representative compounds according to the invention against various bacterial strains was investigated. In a typical study, overnight grown bacterial cultures were diluted appropriately and inoculated on the agar media containing doubling dilutions of the test compounds. Observations for growth or no growth was performed after 16-20 hours of incubation at 35±2° C. in the ambient air. The overall procedure was performed as per Clinical and Laboratory Standards Institute (CLSI) recommendations, (Clinical and Laboratory Standards Institute (CLSI), Performance Standards for Antimicrobial Susceptibility Testing, 20th Informational Supplement, M07-A9, Volume 32, No. 2, 2012). Molten Mueller Hinton Agar (BD, USA) containing serial dilutions of each antibacterial agent were poured on to the plates and allowed to solidify. […]
The strains selected for study included E. coli NCTC 13353 producing CTX-M15 and OXA-1 beta-lactamase enzymes; K. pneumoniae H521 producing KPC, SHV, TEM beta-lactamase enzymes; and K. pneumoniae S48 producing NDM, SHV, TEM beta-lactamase enzymes. The activities are expressed as Minimum Inhibitory Concentrations (MICs) (mcg/ml).
For orientation: Agar dilution tests growth on a series of plates holding different concentrations.

Substance “sodium salt of (2S,5R)-succinic acid tert-butyl ester 4-{2-oxo-2-[N′-(7-oxo-6-sulphooxy-1,6-diaza-bicyclo[3.2.1]octane-2-carbonyl)-hydrazino]ethyl}-phenyl ester [Example 27]” returned an MIC of 16 µg/mL.

Broadly, the MIC is the lowest concentration that inhibits growth of the organism. A lower MIC goes with greater potency.
